Results on 1 compound are retold here after paper PMC6226112 (Clinical and Translational Science, 2018).

For the data set the following is noted: both, human, in vivo.

Molecules are shown by their SMILES.

On to `C=CCN1CC[C@]23c4c5ccc(O)c4O[C@H]2C(=O)CC[C@@]3(O)[C@H]1C5` [NAL, naloxone], for which the “Apparent terminal T½, GM” value came to 1.93 h.
